The target of this assay is m7 (FITC label, end not stated). Put plainly: FP.

Usually Kd stands for the constant that tells how readily two partners part at equilibrium. Read a high Kd as weaker binding.

B1: dT14-3-3_biPKA, unphosphorylated (other)
chain: MAVAPTAREENVYMAKLAEQAERYEEMVEFMEKVSNSLGSEELTVEERNLLSVAYKNVIGARRASWRIISSIEQKEESRGNEEHVNSIREYRSKIENELSKICDGILKLLDAKLIPSAASGDSKVFYLKMKGDYHRYLAEFKTGAERKEAAESTLTAYKAAQDIATTELAPTHPIRLGLALNFSVFYYEILNSPDRACNLAKQAFDEAIAELDTLGEESYKDSTLIMQLLRDNLTLWTSDMQGGSGGSGGSGGSGGSGGSGGSGGSGGSGGSMAVAPTAREENVYMAKLAEQAERYEEMVEFMEKVSNSLGSEELTVEERNLLSVAYKNVIGARRASWRIISSIEQKEESRGNEEHVNSIREYRSKIENELSKICDGILKLLDAKLIPSAASGDSKVFYLKMKGDYHRYLAEFKTGAERKEAAESTLTAYKAAQDIATTELAPTHPIRLGLALNFSVFYYEILNSPDRACNLAKQAFDEAIAELDTLGEESYKDSTLIMQLLRDNLTLWTSDMQGTSGGSGGSGGSGGSDDVTPCSMSGGSGGSENLYFQSGGSGGSGGSGGSGGSGGSGGSGGSGALSGGSTGTQHRYSTPHAFTFNTSSPSSEGSLSQRQRSTSTPNVH
In the case of B1, binding was put at a Kd of 21.9 nM.

B2: dimeric Tobacco 14-3-3 scaffold (other)
chain: MAVAPTAREENVYMAKLAEQAERYEEMVEFMEKVSNSLGSEELTVEERNLLSVAYKNVIGARRASWRIISSIEQKEESRGNEEHVNSIREYRSKIENELSKICDGILKLLDAKLIPSAASGDSKVFYLKMKGDYHRYLAEFKTGAERKEAAESTLTAYKAAQDIATTELAPTHPIRLGLALNFSVFYYEILNSPDRACNLAKQAFDEAIAELDTLGEESYKDSTLIMQLLRDNLTLWTSDMQGGSGGSGGSGGSGGSGGSGGSGGSGGSGGSMAVAPTAREENVYMAKLAEQAERYEEMVEFMEKVSNSLGSEELTVEERNLLSVAYKNVIGARRASWRIISSIEQKEESRGNEEHVNSIREYRSKIENELSKICDGILKLLDAKLIPSAASGDSKVFYLKMKGDYHRYLAEFKTGAERKEAAESTLTAYKAAQDIATTELAPTHPIRLGLALNFSVFYYEILNSPDRACNLAKQAFDEAIAELDTLGEESYKDSTLIMQLLRDNLTLWTSDMQ
Molecule B2 registered a dissociation constant (Kd) of 29.4 nM. This Kd and that of the molecule before are within 1.5-fold of each other.

B3: dT14-3-3_biPKB, unphosphorylated (other)
chain: MAVAPTAREENVYMAKLAEQAERYEEMVEFMEKVSNSLGSEELTVEERNLLSVAYKNVIGARRASWRIISSIEQKEESRGNEEHVNSIREYRSKIENELSKICDGILKLLDAKLIPSAASGDSKVFYLKMKGDYHRYLAEFKTGAERKEAAESTLTAYKAAQDIATTELAPTHPIRLGLALNFSVFYYEILNSPDRACNLAKQAFDEAIAELDTLGEESYKDSTLIMQLLRDNLTLWTSDMQGGSGGSGGSGGSGGSGGSGGSGGSGGSGGSMAVAPTAREENVYMAKLAEQAERYEEMVEFMEKVSNSLGSEELTVEERNLLSVAYKNVIGARRASWRIISSIEQKEESRGNEEHVNSIREYRSKIENELSKICDGILKLLDAKLIPSAASGDSKVFYLKMKGDYHRYLAEFKTGAERKEAAESTLTAYKAAQDIATTELAPTHPIRLGLALNFSVFYYEILNSPDRACNLAKQAFDEAIAELDTLGEESYKDSTLIMQLLRDNLTLWTSDMQGTSGGSGGSGGSGGSDDVTPCSMSGGSGGSENLYFQSGGSGGSGGSGGSGGSGGSGGSGGSGALSGGSTGTRARTSSFAEPGGSGGSGGSGSRARTSSFAEP
B3 returned a Kd of 22 nM.

B4: dT14-3-3_PKA/CHK1, unphosphorylated (other)
chain: MAVAPTAREENVYMAKLAEQAERYEEMVEFMEKVSNSLGSEELTVEERNLLSVAYKNVIGARRASWRIISSIEQKEESRGNEEHVNSIREYRSKIENELSKICDGILKLLDAKLIPSAASGDSKVFYLKMKGDYHRYLAEFKTGAERKEAAESTLTAYKAAQDIATTELAPTHPIRLGLALNFSVFYYEILNSPDRACNLAKQAFDEAIAELDTLGEESYKDSTLIMQLLRDNLTLWTSDMQGGSGGSGGSGGSGGSGGSGGSGGSGGSGGSMAVAPTAREENVYMAKLAEQAERYEEMVEFMEKVSNSLGSEELTVEERNLLSVAYKNVIGARRASWRIISSIEQKEESRGNEEHVNSIREYRSKIENELSKICDGILKLLDAKLIPSAASGDSKVFYLKMKGDYHRYLAEFKTGAERKEAAESTLTAYKAAQDIATTELAPTHPIRLGLALNFSVFYYEILNSPDRACNLAKQAFDEAIAELDTLGEESYKDSTLIMQLLRDNLTLWTSDMQGTSGGSGGSGGSGGSDDVTPCSMSGGSGGSENLYFQSGGSGGSGGSGGSGGSGGSGGSGGSGALSGGSTGTRQRSTSTPNVGGSGGSGGSGSLYRSPSMPEN
B4 showed a Kd of 23.3 nM.

B5: dT14-3-3_PKA/PKB, unphosphorylated (other)
chain: MAVAPTAREENVYMAKLAEQAERYEEMVEFMEKVSNSLGSEELTVEERNLLSVAYKNVIGARRASWRIISSIEQKEESRGNEEHVNSIREYRSKIENELSKICDGILKLLDAKLIPSAASGDSKVFYLKMKGDYHRYLAEFKTGAERKEAAESTLTAYKAAQDIATTELAPTHPIRLGLALNFSVFYYEILNSPDRACNLAKQAFDEAIAELDTLGEESYKDSTLIMQLLRDNLTLWTSDMQGGSGGSGGSGGSGGSGGSGGSGGSGGSGGSMAVAPTAREENVYMAKLAEQAERYEEMVEFMEKVSNSLGSEELTVEERNLLSVAYKNVIGARRASWRIISSIEQKEESRGNEEHVNSIREYRSKIENELSKICDGILKLLDAKLIPSAASGDSKVFYLKMKGDYHRYLAEFKTGAERKEAAESTLTAYKAAQDIATTELAPTHPIRLGLALNFSVFYYEILNSPDRACNLAKQAFDEAIAELDTLGEESYKDSTLIMQLLRDNLTLWTSDMQGTSGGSGGSGGSGGSDDVTPCSMSGGSGGSENLYFQSGGSGGSGGSGGSGGSGGSGGSGGSGALSGGSTGTRQRSTSTPNVGGSGGSGGSGSRARTSSFAEP
B5 had a Kd of 29.1 nM.

B6: dT14-3-3_biCHK1, unphosphorylated (other)
chain: MAVAPTAREENVYMAKLAEQAERYEEMVEFMEKVSNSLGSEELTVEERNLLSVAYKNVIGARRASWRIISSIEQKEESRGNEEHVNSIREYRSKIENELSKICDGILKLLDAKLIPSAASGDSKVFYLKMKGDYHRYLAEFKTGAERKEAAESTLTAYKAAQDIATTELAPTHPIRLGLALNFSVFYYEILNSPDRACNLAKQAFDEAIAELDTLGEESYKDSTLIMQLLRDNLTLWTSDMQGGSGGSGGSGGSGGSGGSGGSGGSGGSGGSMAVAPTAREENVYMAKLAEQAERYEEMVEFMEKVSNSLGSEELTVEERNLLSVAYKNVIGARRASWRIISSIEQKEESRGNEEHVNSIREYRSKIENELSKICDGILKLLDAKLIPSAASGDSKVFYLKMKGDYHRYLAEFKTGAERKEAAESTLTAYKAAQDIATTELAPTHPIRLGLALNFSVFYYEILNSPDRACNLAKQAFDEAIAELDTLGEESYKDSTLIMQLLRDNLTLWTSDMQGTSGGSGGSGGSGGSDDVTPCSMSGGSGGSENLYFQSGGSGGSGGSGGSGGSGGSGGSGGSGALSGGSTGTLYRSPSMPENGGSGGSGGSGSLYRSPSMPEN
Take B6: the dissociation constant Kd stood at 18.9 nM.

B7: dT14-3-3_PKB/CHK1, unphosphorylated (other)
chain: MAVAPTAREENVYMAKLAEQAERYEEMVEFMEKVSNSLGSEELTVEERNLLSVAYKNVIGARRASWRIISSIEQKEESRGNEEHVNSIREYRSKIENELSKICDGILKLLDAKLIPSAASGDSKVFYLKMKGDYHRYLAEFKTGAERKEAAESTLTAYKAAQDIATTELAPTHPIRLGLALNFSVFYYEILNSPDRACNLAKQAFDEAIAELDTLGEESYKDSTLIMQLLRDNLTLWTSDMQGGSGGSGGSGGSGGSGGSGGSGGSGGSGGSMAVAPTAREENVYMAKLAEQAERYEEMVEFMEKVSNSLGSEELTVEERNLLSVAYKNVIGARRASWRIISSIEQKEESRGNEEHVNSIREYRSKIENELSKICDGILKLLDAKLIPSAASGDSKVFYLKMKGDYHRYLAEFKTGAERKEAAESTLTAYKAAQDIATTELAPTHPIRLGLALNFSVFYYEILNSPDRACNLAKQAFDEAIAELDTLGEESYKDSTLIMQLLRDNLTLWTSDMQGTSGGSGGSGGSGGSDDVTPCSMSGGSGGSENLYFQSGGSGGSGGSGGSGGSGGSGGSGGSGALSGGSTGTRARTSSFAEPGGSGGSGGSGSLYRSPSMPEN
With B7, the dissociation constant Kd amounted to 26.3 nM.

(Values after publication PMC9295147 (2022).)
